{"sequences": {"note": "By UniProt entry, the sequences of proteins in these tests, tags left out. Where a name states a change or a piece, a line headed by the entry shows the natural chain unless it says otherwise. Residues count along the entry.", "UniProt P21127": "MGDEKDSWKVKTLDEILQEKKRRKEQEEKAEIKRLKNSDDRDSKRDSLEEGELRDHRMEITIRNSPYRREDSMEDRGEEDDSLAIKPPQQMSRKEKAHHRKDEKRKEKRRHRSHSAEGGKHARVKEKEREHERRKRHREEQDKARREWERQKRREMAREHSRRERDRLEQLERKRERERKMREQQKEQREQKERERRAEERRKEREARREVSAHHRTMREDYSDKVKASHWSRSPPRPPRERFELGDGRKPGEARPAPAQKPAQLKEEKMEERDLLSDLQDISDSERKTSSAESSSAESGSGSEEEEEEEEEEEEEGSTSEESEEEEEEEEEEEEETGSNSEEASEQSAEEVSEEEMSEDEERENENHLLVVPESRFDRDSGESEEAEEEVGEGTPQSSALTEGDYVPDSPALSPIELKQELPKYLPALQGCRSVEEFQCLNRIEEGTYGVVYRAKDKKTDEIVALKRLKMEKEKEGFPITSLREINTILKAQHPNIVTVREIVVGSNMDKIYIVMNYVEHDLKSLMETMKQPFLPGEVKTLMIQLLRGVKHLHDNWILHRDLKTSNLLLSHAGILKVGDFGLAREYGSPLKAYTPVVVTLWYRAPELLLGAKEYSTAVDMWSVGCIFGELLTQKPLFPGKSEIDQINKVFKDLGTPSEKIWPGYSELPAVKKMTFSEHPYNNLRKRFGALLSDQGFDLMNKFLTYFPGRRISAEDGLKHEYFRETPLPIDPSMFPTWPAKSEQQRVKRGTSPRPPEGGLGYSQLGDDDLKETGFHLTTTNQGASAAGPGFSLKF", "UniProt P23458": "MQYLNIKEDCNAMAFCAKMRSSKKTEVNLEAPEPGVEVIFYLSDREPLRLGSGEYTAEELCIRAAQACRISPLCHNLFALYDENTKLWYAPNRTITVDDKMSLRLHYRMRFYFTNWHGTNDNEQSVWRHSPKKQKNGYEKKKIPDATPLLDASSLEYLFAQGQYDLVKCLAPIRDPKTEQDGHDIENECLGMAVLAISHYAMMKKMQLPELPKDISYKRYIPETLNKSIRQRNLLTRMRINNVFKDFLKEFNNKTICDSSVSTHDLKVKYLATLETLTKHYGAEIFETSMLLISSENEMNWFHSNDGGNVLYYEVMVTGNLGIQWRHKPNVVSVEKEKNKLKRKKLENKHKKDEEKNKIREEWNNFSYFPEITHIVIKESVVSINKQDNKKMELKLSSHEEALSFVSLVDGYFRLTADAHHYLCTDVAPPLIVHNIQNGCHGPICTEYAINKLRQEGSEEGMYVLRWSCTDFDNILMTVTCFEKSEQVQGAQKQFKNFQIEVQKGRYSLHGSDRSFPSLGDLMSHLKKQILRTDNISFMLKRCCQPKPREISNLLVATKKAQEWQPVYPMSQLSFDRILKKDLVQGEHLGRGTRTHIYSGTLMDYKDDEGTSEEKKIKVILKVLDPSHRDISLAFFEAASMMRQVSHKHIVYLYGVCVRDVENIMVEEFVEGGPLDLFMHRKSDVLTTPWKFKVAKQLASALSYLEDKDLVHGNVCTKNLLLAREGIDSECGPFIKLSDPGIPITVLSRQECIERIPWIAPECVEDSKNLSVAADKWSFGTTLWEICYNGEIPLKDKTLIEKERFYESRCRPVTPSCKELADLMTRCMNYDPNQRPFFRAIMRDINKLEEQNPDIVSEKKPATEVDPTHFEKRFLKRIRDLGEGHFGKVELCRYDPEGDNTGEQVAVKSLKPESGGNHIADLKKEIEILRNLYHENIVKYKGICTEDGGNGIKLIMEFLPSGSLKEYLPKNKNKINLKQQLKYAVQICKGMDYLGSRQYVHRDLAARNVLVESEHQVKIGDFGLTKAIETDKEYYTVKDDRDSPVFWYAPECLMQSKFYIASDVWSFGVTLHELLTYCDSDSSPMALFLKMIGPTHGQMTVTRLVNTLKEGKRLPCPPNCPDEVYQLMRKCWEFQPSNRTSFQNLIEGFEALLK", "UniProt P50053": "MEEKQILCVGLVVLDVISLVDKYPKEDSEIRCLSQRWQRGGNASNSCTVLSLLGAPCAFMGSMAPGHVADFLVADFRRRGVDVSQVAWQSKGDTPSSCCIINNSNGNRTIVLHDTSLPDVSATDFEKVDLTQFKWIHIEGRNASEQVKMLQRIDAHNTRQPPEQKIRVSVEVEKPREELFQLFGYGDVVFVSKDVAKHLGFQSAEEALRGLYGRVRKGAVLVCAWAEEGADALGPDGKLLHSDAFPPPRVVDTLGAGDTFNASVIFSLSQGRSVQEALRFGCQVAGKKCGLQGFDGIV", "UniProt Q08345, 19-913": "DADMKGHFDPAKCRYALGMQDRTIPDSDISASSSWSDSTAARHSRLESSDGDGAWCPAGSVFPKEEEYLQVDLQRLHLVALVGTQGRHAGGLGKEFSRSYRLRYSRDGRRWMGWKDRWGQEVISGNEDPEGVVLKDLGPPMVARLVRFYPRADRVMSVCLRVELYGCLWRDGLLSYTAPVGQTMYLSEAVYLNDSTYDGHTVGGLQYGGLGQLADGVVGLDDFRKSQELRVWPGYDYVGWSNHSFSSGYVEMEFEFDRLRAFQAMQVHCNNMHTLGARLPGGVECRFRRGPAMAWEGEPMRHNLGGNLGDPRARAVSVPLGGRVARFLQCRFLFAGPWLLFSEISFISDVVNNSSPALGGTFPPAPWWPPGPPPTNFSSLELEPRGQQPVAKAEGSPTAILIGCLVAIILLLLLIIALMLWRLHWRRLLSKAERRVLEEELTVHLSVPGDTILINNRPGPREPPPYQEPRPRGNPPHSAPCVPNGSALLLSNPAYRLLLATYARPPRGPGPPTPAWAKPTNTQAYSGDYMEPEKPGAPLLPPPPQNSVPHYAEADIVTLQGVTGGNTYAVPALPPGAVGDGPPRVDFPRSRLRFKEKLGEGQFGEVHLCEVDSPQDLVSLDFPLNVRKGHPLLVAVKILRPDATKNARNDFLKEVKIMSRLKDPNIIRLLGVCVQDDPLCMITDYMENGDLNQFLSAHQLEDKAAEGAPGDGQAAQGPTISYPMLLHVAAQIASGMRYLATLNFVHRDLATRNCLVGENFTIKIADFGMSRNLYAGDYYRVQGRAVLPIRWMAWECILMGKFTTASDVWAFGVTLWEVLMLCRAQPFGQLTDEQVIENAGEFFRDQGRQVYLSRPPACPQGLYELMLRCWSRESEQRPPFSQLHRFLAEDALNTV"}, "source": "patent US8959984B2", "about": "“Proteome-wide quantification of small molecule binding to cellular target proteins” (priority 2007, dated 2015)", "test_in_all_cases": "Ki determination for immobilized VI16742: two consecutive incubations, control beads, ligand concentration and incubation time controls (Tables 7, 8)", "assay_type_in_all_cases": "binding", "key": {"[1]": {"target": "T1, cellular target proteins in HeLa cell lysate (Homo sapiens, UniProt O00141)", "T1 sequence (O00141 1-431)": "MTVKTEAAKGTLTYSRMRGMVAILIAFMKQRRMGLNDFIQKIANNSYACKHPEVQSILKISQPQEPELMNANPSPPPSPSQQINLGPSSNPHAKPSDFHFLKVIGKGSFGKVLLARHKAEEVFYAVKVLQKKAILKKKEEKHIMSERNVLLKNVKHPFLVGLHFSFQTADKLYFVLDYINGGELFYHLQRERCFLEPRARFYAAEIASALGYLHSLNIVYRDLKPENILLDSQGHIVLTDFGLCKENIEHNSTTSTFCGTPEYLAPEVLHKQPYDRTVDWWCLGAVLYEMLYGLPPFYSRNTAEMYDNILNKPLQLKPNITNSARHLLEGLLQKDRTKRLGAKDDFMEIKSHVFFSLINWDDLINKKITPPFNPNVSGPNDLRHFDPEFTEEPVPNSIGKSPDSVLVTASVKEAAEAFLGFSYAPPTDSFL", "details": "Ki (VI16742), SGK IPI00479349", "description": "(§1) In an alternative implementation of the chemical proteomic approach according to the invention, the broadly-selective pyrido[2,3-d]pyrimidine-based kinase inhibitor VI16742 has been used for affinity capture (FIG. 10a). […] As shown by gene ontology analysis, the corresponding molecular functions were highly over-represented in proteins specifically retained by the inhibitor resin (FIG. 10b).\n(§2) Cysteine carbamidomethylation was set as a fixed modification and N-acetyl protein and oxidized methionine were allowed as variable modifications. Spectra that were determined to result from heavy labeled peptides in the pre-search detection of SILAC partners by MaxQuant were searched with the fixed modifications Lys^4, Lys^8, Arg^6 and Arg^10, whereas MS/MS spectra for which no SILAC state could be assigned before database searching were searched with Lys^4, Lys^8, Arg^6 and Arg^10 as variable modifications. The mass tolerance was set to 5 ppm for monoisotopic precursor ions and to 0.5 Da for MS/MS peaks. The minimum peptide length was set to 6 amino acids and up to three missed cleavages and three isotopically labeled amino acids were permitted per peptide. The accepted false discovery rate (FDR) was 1% for the proteins and peptides. The cut-off for the posterior error probability (PEP) of peptides was set to 10%. Peptide PEPs were determined by generating Mascot score and peptide-length-dependent histograms for both the forward and the reverse hits and then deriving the probability of a false identification for a given top-scoring peptide using Bayes' theorem. The PEPs of peptides belonging to the same proteins were then multiplied. Each peptide sequence was considered only once with the lowest PEP determined in case of multiple sequencing of the same isotopic pattern or of peptide species with different SILAC, charge or modification states. Proteins were then sorted according to their products of their peptide PEPs and included until a FDR of 1% was reached according to the fraction of reverse proteins contained in the protein list. In addition to the FDR threshold applied for protein identification, proteins were only included when they were identified with at least two peptides (of which one was required to be unique for the protein) and quantified if at least on quantifiable SILAC pair was associated with them. Outliers were not removed as protein ratios were calculated as the median instead of the average of all peptide ratios. For peptides shared among different identified proteins, SILAC ratios were only considered for the ratio of the protein identified with the highest number of unique peptides. Protein ratios for the different in vitro association experiments were corrected for the initial SILAC pooling ratio, which was determined from the median of protein ratios in pooled SILAC-encoded cell extracts."}, "[2]": {"target": "cellular target proteins in HeLa cell lysate (Homo sapiens, UniProt P21127)", "details": "Ki (VI16742), PITSLRE (CDC2L1) IPI00215999", "description": "as §1, §2"}, "[3]": {"target": "cellular target proteins in HeLa cell lysate (Homo sapiens, UniProt P23458)", "details": "Ki (VI16742), JAK1 IPI00784013", "description": "as §1, §2"}, "[4]": {"target": "T2, cellular target proteins in HeLa cell lysate (Homo sapiens, UniProt P48426)", "T2 sequence (P48426 1-406)": "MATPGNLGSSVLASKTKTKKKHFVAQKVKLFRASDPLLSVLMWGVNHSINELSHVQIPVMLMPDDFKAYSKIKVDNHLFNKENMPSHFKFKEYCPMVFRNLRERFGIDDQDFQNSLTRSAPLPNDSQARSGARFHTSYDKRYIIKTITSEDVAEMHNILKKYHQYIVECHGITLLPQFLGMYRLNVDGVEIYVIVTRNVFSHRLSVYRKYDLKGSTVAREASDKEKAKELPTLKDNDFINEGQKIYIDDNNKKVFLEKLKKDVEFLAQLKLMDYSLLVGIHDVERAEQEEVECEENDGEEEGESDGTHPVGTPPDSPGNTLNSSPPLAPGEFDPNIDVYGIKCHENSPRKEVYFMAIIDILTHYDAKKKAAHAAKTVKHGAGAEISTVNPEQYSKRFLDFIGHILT", "details": "Ki (VI16742), PIP4K2A IPI00009688", "description": "as §1, §2"}, "[5]": {"target": "cellular target proteins in HeLa cell lysate (Homo sapiens, UniProt P50053)", "details": "Ki (VI16742), KHK IPI00029488", "description": "as §1, §2"}, "[6]": {"target": "cellular target proteins in HeLa cell lysate (Homo sapiens, UniProt Q08345)", "details": "Ki (VI16742), DDR1 IPI00657861", "description": "as §1, §2"}, "[7]": {"target": "cellular target proteins in HeLa cell lysate (Homo sapiens, UniProt Q9Y3C4)", "details": "Ki (VI16742), TPRKB IPI00301432", "description": "as §1, §2"}}}
{"smiles": "CC(C)n1c(=O)ccc2cnc(Nc3ccc(OCCN)cc3)nc21", "note": "[V16742]", "values": [{"measurement": "Ki", "setting": "[1]", "result": 23.7, "unit": "µM"}, {"measurement": "Ki", "setting": "[2]", "result": 68.4, "unit": "µM"}, {"measurement": "Ki", "setting": "[3]", "result": 5.35, "unit": "µM"}, {"measurement": "Ki", "setting": "[4]", "result": 35.2, "unit": "µM"}, {"measurement": "Ki", "setting": "[5]", "result": 25.7, "unit": "µM"}, {"measurement": "Ki", "setting": "[6]", "result": 40.8, "unit": "µM"}, {"measurement": "Ki", "setting": "[7]", "result": 18.9, "unit": "µM"}]}
